According to US4039736A, “Antibiotic compounds marcellomycin and musettamycin” (Bristol-Myers Company, priority 1976, dated 1977):

Assays:
L-1210 leukemia [1] = assay: transplanted mouse leukemia L-1210 (ascitic); conditions: for Survivors Day 5: single i.p. injection Day 1
P-388 leukemia = assay: transplanted mouse leukemia P-388 (ascitic); conditions: for Survivors Day 5: single i.p. injection Day 1
L-1210 leukemia [2] = assay: L-1210 mouse leukemia, purified compounds, BDF1 female mice

CC[C@@]1(O)C[C@H](O[C@H]2C[C@H](N(C)C)[C@H](O[C@H]3C[C@H](O)[C@H](O)[C@H](C)O3)[C@H](C)O2)c2c(cc3c(c2O)C(=O)c2c(O)ccc(O)c2C3=O)[C@H]1C(=O)OC [musettamycin]
Survivors Day 5 (L-1210 leukemia [1]; 6.4 mg/kg): 6/6 | Survivors Day 5 (L-1210 leukemia [1]; .8 mg/kg): 6/6 | activity on L-1210 mouse leukemia (L-1210 leukemia [1]; Example 7 column fraction): highly active | Survivors Day 5 (P-388 leukemia; 6.4 mg/kg): 6/6 | Survivors Day 5 (P-388 leukemia; .2 mg/kg): 6/6 | Survivors Day 5 (P-388 leukemia; .4 mg/kg): 6/6 | Survivors Day 5 (P-388 leukemia; .8 mg/kg): 6/6 | activity on P-388 mouse leukemia (P-388 leukemia; Example 7 column fraction): highly active | Survivors Day 5 (L-1210 leukemia [2]; 6.4 mg/kg/day i.p., Day 1, 1 injection): 6/6 | Survivors Day 5 (L-1210 leukemia [2]; 6.4 mg/kg/day i.p., Day 1→5, 5 injections): 5/6 | Survivors Day 5 (L-1210 leukemia [2]; 12.8 mg/kg/day i.p., Day 1, 1 injection): 6/6 | Survivors Day 5 (L-1210 leukemia [2]; .2 mg/kg/day i.p., Day 1→5, 5 injections): 6/6 | Survivors Day 5 (L-1210 leukemia [2]; .4 mg/kg/day i.p., Day 1, 1 injection): 6/6 | Survivors Day 5 (L-1210 leukemia [2]; .4 mg/kg/day i.p., Day 1→5, 5 injections): 6/6 | Survivors Day 5 (L-1210 leukemia [2]; .8 mg/kg/day i.p., Day 1, 1 injection): 6/6 | Survivors Day 5 (L-1210 leukemia [2]; .8 mg/kg/day i.p., Day 1→5, 5 injections): 6/6
